Experimental findings from BindingDB's records for 22001085 are described below.

Amino acid sequences for entries named in this document (tags omitted).
UniProt Q29550, whole entry, looked up: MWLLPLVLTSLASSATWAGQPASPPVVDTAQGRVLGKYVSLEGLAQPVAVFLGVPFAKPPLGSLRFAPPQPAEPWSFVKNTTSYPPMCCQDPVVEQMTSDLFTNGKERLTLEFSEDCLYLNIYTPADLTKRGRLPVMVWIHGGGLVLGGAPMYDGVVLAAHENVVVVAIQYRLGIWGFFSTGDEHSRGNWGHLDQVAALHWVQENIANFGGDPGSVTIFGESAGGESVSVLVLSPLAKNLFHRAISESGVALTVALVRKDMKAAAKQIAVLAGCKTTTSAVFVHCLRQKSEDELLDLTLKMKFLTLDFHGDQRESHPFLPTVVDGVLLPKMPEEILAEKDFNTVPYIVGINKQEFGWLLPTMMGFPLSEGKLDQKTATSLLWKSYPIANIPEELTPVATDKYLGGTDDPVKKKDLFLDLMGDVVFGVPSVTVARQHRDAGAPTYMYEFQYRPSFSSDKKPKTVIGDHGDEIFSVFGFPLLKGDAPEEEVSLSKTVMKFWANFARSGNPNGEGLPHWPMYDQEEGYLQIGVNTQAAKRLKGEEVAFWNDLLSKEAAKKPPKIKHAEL

The structures appear in SMILES notation. pIC50: −log10 of the molar value.

For the test, the target named is Liver carboxylesterase (Sus scrofa, UniProt Q29550).
Regarding `CC(C)[C@@H](Cn1cc(COP(C)(=O)OC(C(F)(F)F)C(F)(F)F)nn1)NC(=O)CN(Cc1ccccc1)C(=O)[C@H](C)NC(=O)OC(C)(C)C` (stereo not given in full), the pIC50 (commonly the negative decadic logarithm of the IC50, by convention in mol/L) was 3.11. The molecule `COC(=O)C(OP(C)(=O)OCc1cn(C[C@@H](NC(=O)CN(Cc2ccccc2)C(=O)C(F)(F)F)C(C)C)nn1)C(F)(F)F` (stereo not given in full) gave a pIC50 of 3.80. In turn, `C[C@@H](Cn1cc(COP(C)(=O)OC(C(F)(F)F)C(F)(F)F)nn1)NC(=O)CN(Cc1ccccc1)C(=O)C(F)(F)F` (stereo not given in full) showed a pIC50 of 3.74. As for `CC[C@H](C)[C@H](NC(=O)OC(C)(C)C)C(=O)N(Cc1ccc(OC)cc1OC)C(C)(C)C(=O)N[C@@H](C)Cn1cc(COP(C)(=O)OC(C(F)(F)F)C(F)(F)F)nn1` (stereo not given in full), the figure is 3.08. In the case of `CC(C)(C(=O)NCCn1cc(COP(C)(=O)OC(C(F)(F)F)C(F)(F)F)nn1)N(Cc1ccccc1)C(=O)C(F)(F)F` (stereo not given) it was 3.84.
